Molecular target: T1, BCRP (Homo sapiens, UniProt Q9UNQ0)
T1 construct: host or cells: MDCKII-BCRP (canine MDR1 knockout, transfected with BCRP)
Assay: MDCKII-BCRP bidirectional permeability / efflux assay
Type: in vitro ADME
Details: dog, absence of Ko143

By UniProt entry, the sequences of proteins in these tests, tags left out. Where a name states a change or a piece, a line headed by the entry shows the natural chain unless it says otherwise.
UniProt Q9UNQ0: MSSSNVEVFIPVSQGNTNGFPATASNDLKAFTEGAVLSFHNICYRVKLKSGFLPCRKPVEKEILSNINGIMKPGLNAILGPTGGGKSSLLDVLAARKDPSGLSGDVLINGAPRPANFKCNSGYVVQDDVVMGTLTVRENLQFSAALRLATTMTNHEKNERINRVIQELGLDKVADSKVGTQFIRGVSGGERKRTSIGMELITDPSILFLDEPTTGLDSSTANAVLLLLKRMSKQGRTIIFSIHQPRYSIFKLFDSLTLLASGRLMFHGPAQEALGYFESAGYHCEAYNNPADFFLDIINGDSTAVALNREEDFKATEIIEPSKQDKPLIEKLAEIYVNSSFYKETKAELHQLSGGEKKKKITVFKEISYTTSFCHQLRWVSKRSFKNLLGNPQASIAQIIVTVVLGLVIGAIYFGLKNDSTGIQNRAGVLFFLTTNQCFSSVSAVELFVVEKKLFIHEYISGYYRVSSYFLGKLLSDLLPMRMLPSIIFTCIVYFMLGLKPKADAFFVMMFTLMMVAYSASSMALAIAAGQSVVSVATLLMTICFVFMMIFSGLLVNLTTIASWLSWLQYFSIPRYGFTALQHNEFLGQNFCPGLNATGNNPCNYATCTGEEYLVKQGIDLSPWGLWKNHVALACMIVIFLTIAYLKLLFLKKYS

Papp A→B at 120 min: 0.52 ± 0.1 ×10⁻⁶ cm/s | Papp B→A at 120 min: 29.7 ± 3.21 ×10⁻⁶ cm/s | efflux ratio at 120 min: 56.9
SMILES: O=C1CN(/N=C/c2ccc(-c3ccc([N+](=O)[O-])cc3)o2)C(O)=N1 [Dan., dantrolene, reference compound]

Source: publication PMC12648443, “Modifications of NU-9, a potent protein aggregation inhibitor. Properties and activity in a cellular model of amyotrophic lateral sclerosis” (Bioorganic chemistry, 2025)
